For assay [1], the system named is NIH 3T3 mouse fibroblast cells. As to the kind of experiment: Mitogen-induced cell proliferation. It counts as cell-based.
Assay [2] concerns the target Gardos channel of erythrocytes (Homo sapiens, UniProt O15554).

Amino acid sequences for entries named in this document (tags omitted).
UniProt O15554, whole entry: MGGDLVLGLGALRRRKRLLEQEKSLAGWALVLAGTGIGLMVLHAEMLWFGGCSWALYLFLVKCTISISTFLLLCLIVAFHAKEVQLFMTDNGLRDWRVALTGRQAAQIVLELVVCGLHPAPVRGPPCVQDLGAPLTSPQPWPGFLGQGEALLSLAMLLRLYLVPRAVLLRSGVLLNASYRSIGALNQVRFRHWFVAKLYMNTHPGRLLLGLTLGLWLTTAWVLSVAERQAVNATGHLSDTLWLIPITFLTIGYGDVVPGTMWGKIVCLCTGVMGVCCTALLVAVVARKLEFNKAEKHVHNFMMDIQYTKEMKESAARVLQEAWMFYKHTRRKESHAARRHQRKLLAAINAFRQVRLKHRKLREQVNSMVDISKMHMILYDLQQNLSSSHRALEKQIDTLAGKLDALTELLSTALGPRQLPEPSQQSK

Turning to `CON(C)C(=O)CC(c1ccccc1)(c1ccccc1)c1ccccc1Cl`, in assay [1] (measured at 10 μM), the “Mitogen-induced cell proliferation % Inhibition” value is on record as 92.0%. For the same compound, the IC50 in assay [1] (read-out: Mitogen-induced cell proliferation IC50) is 1.2 µM; in assay [2] (read-out: Gardos Channel IC50), 0.459 µM. Moreover, the “Gardos Channel % Inhibition” value in assay [2] (measured at 10 μM) was 99.6%.

These data come from patent US7531573B2 (priority 1994, dated 2009).
